Source: patent US20260137799A1, “ANTI-MUC1* ANTIBODY DRUG COMPLEXES AND USES THEREOF” (Minerva Biotechnologies Corporation, priority 2023, published 2026)

Test system: breast cancer, pancreatic cancer, and lung cancer cell lines
Assay: Cytotoxicity of ADCs with additional linkers and toxins (FIGS. 30-31)
Type: cell-based
Procedure: FIG. 30 is a table showing cytotoxicity of the indicated MUC1* ADCs against indicated cancer cells. IC50 values were determined from xCELLigence data. FIG. 30 discloses “GGFG” as SEQ ID NO: 160, “GGGG” as SEQ ID NO: 161, “GGVA” as SEQ ID NO: 162, “GGVG” as SEQ ID NO: 163.
FIG. 31 is a table showing cytotoxicity of the indicated MUC1* ADCs against indicated cancer cells. IC50 values were determined from PrestoBlue data.
An anti-MUC1* antibody was conjugated to several toxins via a number of different linkers (compounds VIII-XXII).

Row | Substance | cytotoxic activity against breast cancer, pancreatic cancer, and lung cancer cell lines
1 | C2 MC-VA GAB-exatecan [XV] | cytotoxic activity
2 | C2 MC-GGVA GAB-exatecan [XVI] | cytotoxic activity
